Literature values as cited in patent US20080234352A1, “Controlled release solid dispersions” (EGALET A/S, priority 2001, published 2008).

Key:
[1] = in vivo

| beta effect relative to S(−) (beta-adrenoreceptor) | t½ [1] [h] | SMILES | α effect relative to S(−) (α-adrenoceptor) |
| --- | --- | --- | --- |
| 1/100 | 9.6 | COc1ccccc1OCCNC[C@@H](O)COc1cccc2[nH]c3ccccc3c12 [R(+), R(+) carvedilol] | the same |
|  | 22.1 | COc1ccccc1OCCNC[C@H](O)COc1cccc2[nH]c3ccccc3c12 [S(−), S(−) carvedilol] |  |
